Data: US20220227840A1 (published 2022)

The chains behind the UniProt entries cited, without tags or fusion partners. Residues count along the entry.
UniProt P13726, 33-251 limits assumed: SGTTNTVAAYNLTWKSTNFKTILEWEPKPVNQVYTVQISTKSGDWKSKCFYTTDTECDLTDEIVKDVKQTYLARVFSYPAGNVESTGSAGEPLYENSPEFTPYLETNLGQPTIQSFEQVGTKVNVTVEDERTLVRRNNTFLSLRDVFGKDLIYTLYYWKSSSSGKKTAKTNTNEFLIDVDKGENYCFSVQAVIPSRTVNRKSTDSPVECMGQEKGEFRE

Biological target: T1, tissue factor (TF) extracellular domains (UniProt P13726 33-251, limits assumed)
T1 construct: extracellular domain; also called purified tissue factor
Assay: SPR, Ab captured on anti-Fc, antigen injected

Kd	Binder
0.9 nM	D3H44/pertuzumab bispecific antibody, SMCA design 313*-337* (bispecific antibody) chain 1: not shown chain 2: not shown chain 3: not shown chain 4: DIQMTQSPSSLSASVGDRVTITCKASQDVSIGVAWYQQKPGKAWKLLIYSASYRYTGVPSRFSGSGSGTDFTLTISSLQPEDFATYYCQQYYIYPYTFGQGTKVEIKRTVAAPSVFIFPPSDEQLKSGTASVVCLLNNFYPREAKVQWKVDNALQSGNSQESVTEQDSKDSTYSLSSTLTLSKADYEKHKVYACEVTHQGLSSPVTKSFNRGEC
0.04 nM	D3H44/pertuzumab bispecific antibody, SMCA design # 329*-330* (other placement of the Fc mutations) (bispecific antibody) chain 1: not shown chain 2: not shown chain 3: not shown chain 4: DIQMTQSPSSLSASVGDRVTITCKASQDVSIGVAWYQQKPGKAPKLLIYSASYRYTGVPSRFSGSGSGTDFTLTISSLQPEDFATYYCQQYYIYPYTFGQGTKVEIKRTVAAPSVAIFPPSDEQLKSGTAKVVCALNNFYPREAKVQWKVDNALQSGNSQESVTEQDSKDSTYSLSSTLTLSKADYEKHKVYACEVTHQGLSSPVTKSFNRGEC
